From publication PMC9376960, “Ruthenium(II)–Tris-pyrazolylmethane Complexes Inhibit Cancer Cell Growth by Disrupting Mitochondrial Calcium Homeostasis” (Journal of Medicinal Chemistry, 2022) come the findings set out here.

For this assay, the system named is HCT116 cells. Description: Mitochondrial Tox-Glo assay (oxidative phosphorylation). Conditions: 90 min; glucose-containing or galactose-supplemented medium.

With `CCCCCC[C@H]1C(=O)O[C@H](C)[C@H](NC(=O)c2cccc(NC=O)c2O)C(=O)O[C@@H](C)[C@@H]1OC(=O)CC(C)C`, the “effect on ATP production/synthesis” value is on record as “significantly decreased ATP production”.
